Assay results reported in patent US20130237511A1, “Copper Ion Delivery Platform for Pharmaceutical Agents” (University System of Georgia, priority 2012, published 2013).
Where two headings read alike, the source gives them in different places.

Tested on: National Cancer Institute 60 cancer cell line panel
[1] = A549/ATCC (Non-Small Cell Lung)

For `CC(=O)OC1C(=O)C2(C)C(O)CC3OCC3(OC(C)=O)C2C(OC(=O)c2ccccc2)C2(O)CC(OC(=O)C(O)C(NC(=O)c3ccccc3)c3ccccc3)C(C)=C1C2(C)C.[Cu+2]` (stereo not shown) [Cu-Taxol], which “Copper(II)-Taxol/Taxol ratio” value (A498 (Renal)) is on record?
The value was 1.

And the CuTax/FeTax ratio (A498 (Renal))?
The CuTax/FeTax ratio was 0.01698.

What about the logGI50 (A498 (Renal)) of the same compound?
The logGI50 was −8 Molar.

And the CuTax/FeTax ratio (A549/ATCC (Non- Small Lung Cancer))?
The CuTax/FeTax ratio was 0.1175.

What about the “Copper(II)-Taxol/Taxol ratio” value [1] of the same compound?
The value was 0.9549.

What about the logGI50 [1] of the same compound?
Its logGI50 is −8 Molar.

And the “Copper(II)-Taxol/Taxol ratio” value (ACHN (Renal))?
Its value is 0.4074.

What about the CuTax/FeTax ratio (ACHN (Renal)) of the same compound?
The CuTax/FeTax ratio was 0.1318.

What about the logGI50 (ACHN (Renal)) of the same compound?
The logGI50 was −6.41 Molar.

And the “Copper(II)-Taxol/Taxol ratio” value (Average of panel)?
Its value is 0.6918.

What about the CuTax/FeTax ratio (Average of panel) of the same compound?
The CuTax/FeTax ratio was 0.06577.

And the logGI50 (Average of panel)?
Its logGI50 is −7.748 Molar.

What about the “Copper(II)-Taxol/Taxol ratio” value (BT-549 (Breast)) of the same compound?
Its value is 0.7943.

What about the CuTax/FeTax ratio (BT-549 (Breast)) of the same compound?
Its CuTax/FeTax ratio is 0.03236.

And the logGI50 (BT-549 (Breast))?
The logGI50 was −8 Molar.

What about the “Copper(II)-Taxol/Taxol ratio” value (CAKI-1 (Renal)) of the same compound?
Its value is 0.1778.

And the CuTax/FeTax ratio (CAKI-1 (Renal))?
Its CuTax/FeTax ratio is 0.01585.

What about the logGI50 (CAKI-1 (Renal)) of the same compound?
Its logGI50 is −7.25 Molar.

What about the “Copper(II)-Taxol/Taxol ratio” value (CCRF-CEM (Leukemia)) of the same compound?
Its value is 1.

And the CuTax/FeTax ratio (CCRF-CEM (Leukemia))?
Its CuTax/FeTax ratio is 0.01148.

And the logGI50 (CCRF-CEM (Leukemia))?
Its logGI50 is −8 Molar.

What about the “Copper(II)-Taxol/Taxol ratio” value (COLO205 (Colon)) of the same compound?
Its value is 1.

And the CuTax/FeTax ratio (COLO205 (Colon))?
Its CuTax/FeTax ratio is 0.2291.

What about the logGI50 (COLO205 (Colon)) of the same compound?
Its logGI50 is −8 Molar.

What about the “Copper(II)-Taxol/Taxol ratio” value (DU-145 (Prostate)) of the same compound?
Its value is 1.

And the CuTax/FeTax ratio (DU-145 (Prostate))?
The CuTax/FeTax ratio was 0.166.

What about the logGI50 (DU-145 (Prostate)) of the same compound?
Its logGI50 is −8 Molar.

And the CuTax/FeTax ratio (EKVX (Non- Small Lung Cancer))?
Its CuTax/FeTax ratio is 0.005129.

What about the “Copper(II)-Taxol/Taxol ratio” value (EKVX (Non-Small Cell Lung)) of the same compound?
The value was 0.0912.

What about the logGI50 (EKVX (Non-Small Cell Lung)) of the same compound?
The logGI50 was −8 Molar.

What about the “Copper(II)-Taxol/Taxol ratio” value (HCC-2998 (Colon)) of the same compound?
Its value is 0.9772.

What about the CuTax/FeTax ratio (HCC-2998 (Colon)) of the same compound?
Its CuTax/FeTax ratio is 0.06607.

What about the logGI50 (HCC-2998 (Colon)) of the same compound?
The logGI50 was −8 Molar.

And the “Copper(II)-Taxol/Taxol ratio” value (HCT-15 (Colon))?
The value was 1.0232.

And the CuTax/FeTax ratio (HCT-15 (Colon))?
The CuTax/FeTax ratio was 0.1259.

What about the logGI50 (HCT-15 (Colon)) of the same compound?
The logGI50 was −6.53 Molar.

What about the “Copper(II)-Taxol/Taxol ratio” value (HCT-116 (Colon)) of the same compound?
Its value is 1.

What about the CuTax/FeTax ratio (HCT-116 (Colon)) of the same compound?
The CuTax/FeTax ratio was 0.257.

What about the logGI50 (HCT-116 (Colon)) of the same compound?
Its logGI50 is −8 Molar.

What about the “Copper(II)-Taxol/Taxol ratio” value (HL-60(TB) (Leukemia)) of the same compound?
Its value is 1.

What about the logGI50 (HL-60(TB) (Leukemia)) of the same compound?
Its logGI50 is −8 Molar.

And the CuTax/FeTax ratio (HOP-62 (Non- Small Lung Cancer))?
The CuTax/FeTax ratio was 0.0008128.

And the “Copper(II)-Taxol/Taxol ratio” value (HOP-62 (Non-Small Cell Lung))?
Its value is 0.4168.

And the logGI50 (HOP-62 (Non-Small Cell Lung))?
The logGI50 was −8 Molar.

What about the CuTax/FeTax ratio (HOP-92 (Non- Small Lung Cancer)) of the same compound?
The CuTax/FeTax ratio was 0.4898.

And the “Copper(II)-Taxol/Taxol ratio” value (HOP-92 (Non-Small Cell Lung))?
The value was 338.84.

And the logGI50 (HOP-92 (Non-Small Cell Lung))?
The logGI50 was −5.29 Molar.

And the “Copper(II)-Taxol/Taxol ratio” value (HS578T (Breast))?
Its value is 1.

What about the CuTax/FeTax ratio (HS578T (Breast)) of the same compound?
The CuTax/FeTax ratio was 0.07079.

And the logGI50 (HS578T (Breast))?
The logGI50 was −8 Molar.

What about the “Copper(II)-Taxol/Taxol ratio” value (IGROV1 (Ovarian)) of the same compound?
The value was 0.5495.

What about the CuTax/FeTax ratio (IGROV1 (Ovarian)) of the same compound?
The CuTax/FeTax ratio was 0.04786.

What about the logGI50 (IGROV1 (Ovarian)) of the same compound?
The logGI50 was −8 Molar.

And the “Copper(II)-Taxol/Taxol ratio” value (K-562 (Leukemia))?
The value was 0.7943.

And the CuTax/FeTax ratio (K-562 (Leukemia))?
Its CuTax/FeTax ratio is 0.1023.

What about the logGI50 (K-562 (Leukemia)) of the same compound?
The logGI50 was −8 Molar.

What about the “Copper(II)-Taxol/Taxol ratio” value (KM12 (Colon)) of the same compound?
Its value is 1.

And the CuTax/FeTax ratio (KM12 (Colon))?
The CuTax/FeTax ratio was 0.1585.

What about the logGI50 (KM12 (Colon)) of the same compound?
The logGI50 was −8 Molar.

What about the “Copper(II)-Taxol/Taxol ratio” value (LOXIMVI (Melanoma)) of the same compound?
Its value is 1.

What about the CuTax/FeTax ratio (LOXIMVI (Melanoma)) of the same compound?
The CuTax/FeTax ratio was 0.09333.

What about the logGI50 (LOXIMVI (Melanoma)) of the same compound?
Its logGI50 is −8 Molar.

And the “Copper(II)-Taxol/Taxol ratio” value (M14 (Melanoma))?
Its value is 0.9772.

What about the CuTax/FeTax ratio (M14 (Melanoma)) of the same compound?
The CuTax/FeTax ratio was 0.1585.

And the logGI50 (M14 (Melanoma))?
Its logGI50 is −8 Molar.

What about the “Copper(II)-Taxol/Taxol ratio” value (MCF7 (Breast)) of the same compound?
Its value is 1.

What about the CuTax/FeTax ratio (MCF7 (Breast)) of the same compound?
The CuTax/FeTax ratio was 0.3162.

And the logGI50 (MCF7 (Breast))?
The logGI50 was −8 Molar.

What about the “Copper(II)-Taxol/Taxol ratio” value (MDA-MB-231/ATCC (Breast)) of the same compound?
Its value is 1.

What about the CuTax/FeTax ratio (MDA-MB-231/ATCC (Breast)) of the same compound?
Its CuTax/FeTax ratio is 0.0138.

And the logGI50 (MDA-MB-231/ATCC (Breast))?
Its logGI50 is −8 Molar.

What about the “Copper(II)-Taxol/Taxol ratio” value (MDA-MB-435 (Melanoma)) of the same compound?
Its value is 0.7762.

And the CuTax/FeTax ratio (MDA-MB-435 (Melanoma))?
Its CuTax/FeTax ratio is 0.5623.

And the logGI50 (MDA-MB-435 (Melanoma))?
Its logGI50 is −8 Molar.

And the “Copper(II)-Taxol/Taxol ratio” value (MDA-MB-468 (Breast))?
The value was 1.

And the CuTax/FeTax ratio (MDA-MB-468 (Breast))?
The CuTax/FeTax ratio was 0.2754.

What about the logGI50 (MDA-MB-468 (Breast)) of the same compound?
Its logGI50 is −8 Molar.

And the “Copper(II)-Taxol/Taxol ratio” value (MOLT-4 (Leukemia))?
Its value is 0.6309.

What about the CuTax/FeTax ratio (MOLT-4 (Leukemia)) of the same compound?
The CuTax/FeTax ratio was 0.0007244.

And the logGI50 (MOLT-4 (Leukemia))?
The logGI50 was −8 Molar.

What about the “medicinal / anti-cancer activity in comparison” value (NCI 60 cell line panel, 10^-4 to 10^-8 M) of the same compound?
Its value is “superior to the pure taxol molecule”.

And the CuTax/FeTax ratio (NCI-H23 (Non- Small Lung Cancer))?
Its CuTax/FeTax ratio is 0.06166.
